The list shows a part of the results, in another mix than the full data. The source made the active and inactive calls. No stated cut-off is given here; in the data, active means activation above about 30%; inactive means the rest.

The chains behind the UniProt entries cited, without tags or fusion partners.
UniProt P21728, whole entry: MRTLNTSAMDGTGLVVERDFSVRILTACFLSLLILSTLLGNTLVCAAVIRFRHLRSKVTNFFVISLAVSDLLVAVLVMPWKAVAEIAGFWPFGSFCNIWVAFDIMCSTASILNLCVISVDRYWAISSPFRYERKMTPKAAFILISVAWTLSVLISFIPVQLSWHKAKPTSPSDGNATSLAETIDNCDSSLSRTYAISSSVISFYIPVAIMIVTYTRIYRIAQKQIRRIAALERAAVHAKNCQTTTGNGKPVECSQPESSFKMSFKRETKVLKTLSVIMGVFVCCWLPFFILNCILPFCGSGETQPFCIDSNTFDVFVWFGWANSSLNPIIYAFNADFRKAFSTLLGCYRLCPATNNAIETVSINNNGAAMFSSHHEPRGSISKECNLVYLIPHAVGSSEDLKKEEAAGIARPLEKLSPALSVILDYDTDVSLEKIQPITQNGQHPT

In the test the target is D(1A) dopamine receptor (Homo sapiens) (UniProt P21728). Kind of test: Allosteric Agonists of the Human D1 Dopamine Receptor: qHTS. Further: 0% is about no effect. Conditions: HEK293 T-REx D1 cells, calcium flux, agonist mode; at 2 µM; stronger effect = higher value. The method, boiled down: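 Tetracycline-induced HEK293 TREx D1 cells, force-coupled to calcium signalling, were dye-loaded with a no-wash calcium kit. Compound was pin-added after a 10 s baseline. Fluorescence was read kinetically at 1 cycle/s for 180 s, with calcium rises flagged as agonism.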
A general note: Quantitative high-throughput screening tests each substance at several concentrations.
Regarding `CP(=O)(Oc1ccccc1)N1CCOC1=O` (stereo not given), the activation is inactive: 7.34%.

For `CCc1ccc(OP(C)(=O)Nc2cccnc2)cc1` (stereo not given), the activation was inactive: 1.13%.

With `COc1ccccc1OP(C)(=O)Nc1c(C)n(C)n(-c2ccccc2)c1=O` (stereo not given), the activation is inactive: 1.12%.

In the case of `O=C(OCCCN1CCCC1)C(O)(c1ccccc1)C1CCCCC1` (stereo not given), the activation is active: 35.6%.

As for `CP(=O)(OC12CC3CC(CC(C3)C1)C2)OC12CC3CC(CC(C3)C1)C2`, the activation is inactive: 18.1%.

For `CCOC(=O)c1ccc(NP(C)(=O)Oc2ccc(Cl)cc2)cc1` (stereo not given), the activation was inactive: 6.35%.

As to `Cc1nc2ccc3ccccc3c2o1.O=[N+]([O-])c1cc([N+](=O)[O-])c(O)c([N+](=O)[O-])c1`, the activation is inactive: 1.61%.

`CP(=O)(Nc1ccc(Cl)cc1Cl)Oc1ccccc1` (stereo not given): the activation is inactive: 0.228%.

Take `CP(=O)(OCCOc1ccccc1)OCCOc1ccccc1`: the activation was inactive: 1.29%.

On to `Cc1cc(C)cc(OP(C)(=O)Nc2cccc(C(F)(F)F)c2)c1` (stereo not given), for which the activation was inactive: 2.44%.

For `COc1ccc(OP(C)(=O)Nc2ccccc2Br)cc1` (stereo not given), the activation was inactive: 0.116%.

On to `COc1ccccc1OP(C)(=O)Nc1ccc(C)c(C)c1` (stereo not given), for which the activation was inactive: 0.188%.

For the molecule `Cc1c(NP(C)(=O)Oc2ccc(C(C)C)cc2)c(=O)n(-c2ccccc2)n1C` (stereo not given), the activation was inactive: 3.75%.

With `O=[N+]([O-])c1cc([N+](=O)[O-])c(Nc2ccccn2)c([N+](=O)[O-])c1`, the activation is inactive: 5.2%.

On to `CCc1ccc(OP(C)(=O)O)cc1`, for which the activation was inactive: 9.27%.

Turning to `CP(=O)(Nc1ccccn1)Oc1ccccc1` (stereo not given), the activation is inactive: 1.78%.

`COc1ccccc1OP(C)(=O)Nc1ccc(C)cc1C` (stereo not given): the activation is inactive: 1.17%.

As to `COc1ccccc1OP(C)(=O)Nc1ccc(Br)cc1` (stereo not given), the activation was inactive: 3.77%.

Regarding `CN(C)CCOC(=O)C(O)(c1ccccc1)C1CCCC1` (stereo not given), the activation is inactive: 2.42%.

In the case of `COc1ccc(OP(C)(=O)Nc2ccccn2)cc1` (stereo not given), the activation was inactive: -0.0203%.

These data come from PubChem BioAssay AID504660 (National Center for Advancing Translational Sciences (NCATS), 2011).
